{"source": "patent US11987807B2", "about": "“Isolated human lung progenitor cells and uses thereof” (THE GENERAL HOSPITAL CORPORATION, priority 2012, dated 2024)", "molecules": {"B1": {"name": "BMP2: BMP family member signalling through type I receptor ALK3 (protein, UniProt P12643 283-396, looked up)", "Bone morphogenetic protein 2": "QAKHKQRKRLKSSCKRHPLYVDFSDVGWNDWIVAPPGYHAFYCHGECPFPLADHLNSTNHAIVQTLVNSVNSKIPKACCVPTELSAISMLYLDENEKVVLKNYQDMVVEGCGCR"}}, "test_system": "mouse ESC-derived endoderm / anterior foregut endoderm cells", "details": "BMP7 10 ng/ml", "from_the_text": "Dorsomorphin inhibits BMP signaling through the SMAD pathway while PD98059 inhibits MAPK signaling.\nA recent report described a monolayer-based strategy using synergistic activation of Nodal and Wnt-β-catenin signaling as well as staged BMP4 inhibition to direct mouse ES cells towards an endoderm fate with high efficiency (Sherwood et al., 2011). This technology was adapted herein to generate definitive endoderm (DE) from mouse ES cells. […] Snoeck and colleagues reported that Noggin (a BMP inhibitor) synergized with SB431542 (a TGFβ inhibitor) to suppress a posterior endoderm fate (Cdx2+) in favor of an anterior endoderm fate (Sox2+) (Green et al., 2011). […] Endoderm was treated with combinations of Activin (a TGFβ agonist), A-83-01 (a TGFβ antagonist), BMP4, and Dorsomorphin (a BMP4 antagonist) for 2 days (FIG. 2B). The number of FoxA2+Sox2+ anterior endoderm cells was compared to the total number of FoxA2+ endoderm cells (FIG. 2B). The treated cells were further exposed to the BMP4/FGF2/WNT agonist cocktail for another 2 days to examine their competence to generate Nkx2.1+ cells (FIG. 2B). […] It was tested if their inhibition would enhance anteriorization together with a TGFβ inhibitor.\nThe expression of lung and other anterior cell fate lineage genes including FoxN1 (thymus), Pax8 (thyroid), and Pax9 and Tbx1 (pharyngeal pouch endoderm) was analyzed by real-time qPCR (Figure S4A). […]", "data": [{"molecule": "B1", "values": [{"measurement": "induction of Nkx2.1+ cells from the anterior endoderm compared to BMP4", "value": "less efficient than BMP4"}]}]}
